Consider one substance from patent US20120064513A1, “Cell Sensor, And Monitoring Method Using Same For The Real-Time Monitoring Of Cell Capacitance” (Industry-Acaddemic Cooperation Foundation, Yonsei …, priority 2009, published 2012).

The test system of this experiment is 435 breast cancer cells overexpressing ErbB-2 (HER2/neu). As to the kind of experiment: real-time monitoring of cell capacitance with the cell sensor, 435 breast cancer cells. It counts as cell-based. The source says:
The cell sensor 100 is connected to an LCR meter to measure capacitance, thereby monitoring potential changes of the cell 200 in real time. At this time, 10 mV of AC voltage at a frequency of 3 KHz is applied to the cell sensor 100. In this regard, the frequency of AC voltage applied to the cell sensor 100 may vary depending on the gap size between the first electrode 121 and the second electrode 122, and any frequency other than 3 KHz is also possible, as long as it is a low frequency.
A method for monitoring a cell condition in real time using the cell sensor according to the preferred embodiment of the present invention is as follows.
First, the aforementioned cell sensor is fabricated. The fabricated electrode is sterilized using autoclave equipment and ethanol, and then the well made of acryl or PDMS is attached on the electrode for cell culture.
Next, cells grown to a predetermined density are harvested with trypsin-EDTA, and introduced and attached onto the gap area between the electrodes using a pipette. […]
During the cell cultivation, capacitance between the first electrode and the second electrode is measured in real time, and thus endocytosis of the biomolecules into the cells through the cell surface receptor or adsorption is monitored in real time.

Regarding “herceptin: antibody against ErbB-2 (HER2/neu), anticancer agent used for metastatic breast cancer, osteosarcoma or the like”, the initial capacitance peak entry is “peak similar to those in the virus and CAR-antibody treatment is observed”. In addition, where the note is “different concentrations”, the “concentration dependence of initial capacitance peak” value is on record as “initial peaks differ depending on the concentrations”.
